Calls of active or inactive are those of the source. The calls are words filed in the database; no cut-off is given here.
Target: T1, Uridine-cytidine kinase 2 (Homo sapiens) (UniProt Q9BZX2)
T1 sequence (whole entry): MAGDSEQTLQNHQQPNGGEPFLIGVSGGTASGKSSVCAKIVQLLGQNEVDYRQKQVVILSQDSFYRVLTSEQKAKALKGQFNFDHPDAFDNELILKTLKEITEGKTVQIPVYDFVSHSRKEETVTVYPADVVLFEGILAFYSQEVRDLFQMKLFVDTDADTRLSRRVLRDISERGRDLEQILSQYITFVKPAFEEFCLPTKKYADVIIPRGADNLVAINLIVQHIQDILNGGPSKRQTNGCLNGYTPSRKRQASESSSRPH
Test: Inhibition of UCK2 in human K562 cells assessed as inhibition of uridine salvage at 50 uM incubated for 24 hrs by 5-ethynyl-uridine incorporation assay
Format: cell-based
Outline: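 K562 cells were given compound at 50 µM with 50 µM 5-ethynyl-uridine (5-EU). 5-EU incorporated into cellular RNA was quantified by click chemistry with a fluorescent probe. Dipyridamole at 20 µM served as control. Activity is reported as percent inhibition of 5-EU salvage.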

Row | inhibition | Compound
1 | 19.3% | O=C(CSCn1[nH]nc2c(=O)nc(Cc3ccc(F)cc3)nc1-2)Nc1ccc(F)cc1
2 | inactive | COc1cccc(NC(=O)CSCn2[nH]nc3c(=O)nc(Cc4ccc(F)cc4)nc2-3)c1
